{"source": "patent US7173041B2", "about": "“Polyglutamic acid-camptothecin conjugates and methods of preparation” (priority 2000, dated 2007)", "experiment": "Aqueous solubility of PG-camptothecin conjugates", "details": "% CPT in conjugate (w/w): PG-CPT 14, PG-gly-CPT 37, PG-(10-OAc-CPT) 13, PG-(10-O-CPT) 13, PG-gly-(10-O-CPT) 20, PG-(10-OH-CPT) 19, PG-(9-NH-CPT) 14", "data": [{"substance": "PG-CPT", "values": [{"measurement": "Aqueous solubility", "value": 11, "unit": "mg/mL"}]}]}
